Values of other authors, collected in patent US20200316097A1, “STORAGE-STABLE READY-TO-USE INJECTABLE FORMULATIONS OF FOSAPREPITANT DIMEGLUMINE” (published 2020).

**Q.** For “1-deoxy-1-(methylamino)-D-glucitol[3-[[(2R,3S)-2-[(1R)-1-[3,5bis(trifluoromethyl)phenyl]ethoxy]-3-(4-fluorophenyl)-4-morpholinyl]methyl]-2,5-dihydro-5-oxo-1H-1,2,4triazol-1-yl]phosphonate (2:1) (salt)”, which solubility in water is on record?
**A.** The solubility in water was “freely soluble”.
